Test: Solubility of testosterone in molten CIA systems
Settings: Table 25: PEG 8000 33.3% / vitamin E TPGS 33.3% / lauroyl polyoxyl-32 glycerides 33.3%

For C[C@]12CC[C@H]3[C@@H](CCC4=CC(=O)CC[C@@]43C)[C@@H]1CC[C@@H]2O [Testosterone], the “Solubility of Testosterone in CIA, Theoretical” value was 114.1 mg/gm.

Source: patent US10821118B2, “Oral transmucosal drug delivery system” (ABON PHARMACEUTICALS, LLC, priority 2012, dated 2020)
